{"source": "patent US6924268B2", "about": "“Method for inactivating gonadotrophs” (Colorado State University Research Foundation, priority 1989, dated 2005)", "target": "T1, GnRH receptor (Bos taurus, UniProt P32236)", "T1 construct": "from tissue; host or cells: bovine pituitary membranes", "T1 sequence (P32236 1-328)": "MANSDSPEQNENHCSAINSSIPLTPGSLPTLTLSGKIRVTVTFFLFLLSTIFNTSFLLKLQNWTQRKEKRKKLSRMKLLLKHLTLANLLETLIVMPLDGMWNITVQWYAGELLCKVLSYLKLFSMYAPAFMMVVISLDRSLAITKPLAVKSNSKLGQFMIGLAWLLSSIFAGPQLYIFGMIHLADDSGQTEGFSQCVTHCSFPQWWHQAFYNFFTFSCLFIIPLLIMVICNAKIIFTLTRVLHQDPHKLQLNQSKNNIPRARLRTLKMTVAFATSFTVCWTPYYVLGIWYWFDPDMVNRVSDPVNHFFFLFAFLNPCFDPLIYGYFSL", "assay": "Conjugate binding: displacement of 125I-D Ala6-GnRH-ethylamide from bovine pituitary membranes", "conditions": "data not shown", "data": [{"substance": "gonadotropin-releasing hormone [GnRH]", "values": [{"measurement": "binding activity relative to [D-Lys6, desGly10]-GnRH-ethylamide", "value": "about 1/30"}]}]}
